Earlier results as cited in US20110060267A1 (priority 2008, published 2011).

Settings: benzene; cited from earlier work
For `CC(=O)OOC(C)(C)C`, the “10th Half-life ° C. (Solvent)” value is given as 100 (benzene) ° C.
In the case of `CCC(C)(OOC(C)(C)C)OOC(C)(C)C`, the “10th Half-life ° C. (Solvent)” value is listed as 100 (benzene) ° C.
In the case of “Bis[1-(tert-butylperoxy)-1-methylethyl]benzene”, the “10th Half-life ° C. (Solvent)” value is given as 115 (benzene) ° C.
